# Experimental data published in ChEMBL document CHEMBL4052585 (J Med Chem, 2017).
# Protein sequences, listed by entry. Tags and fused reporters are not part of them. Lines headed by an entry give the natural chain unless they say otherwise; changes in a name come on top.
# UniProt Q99558: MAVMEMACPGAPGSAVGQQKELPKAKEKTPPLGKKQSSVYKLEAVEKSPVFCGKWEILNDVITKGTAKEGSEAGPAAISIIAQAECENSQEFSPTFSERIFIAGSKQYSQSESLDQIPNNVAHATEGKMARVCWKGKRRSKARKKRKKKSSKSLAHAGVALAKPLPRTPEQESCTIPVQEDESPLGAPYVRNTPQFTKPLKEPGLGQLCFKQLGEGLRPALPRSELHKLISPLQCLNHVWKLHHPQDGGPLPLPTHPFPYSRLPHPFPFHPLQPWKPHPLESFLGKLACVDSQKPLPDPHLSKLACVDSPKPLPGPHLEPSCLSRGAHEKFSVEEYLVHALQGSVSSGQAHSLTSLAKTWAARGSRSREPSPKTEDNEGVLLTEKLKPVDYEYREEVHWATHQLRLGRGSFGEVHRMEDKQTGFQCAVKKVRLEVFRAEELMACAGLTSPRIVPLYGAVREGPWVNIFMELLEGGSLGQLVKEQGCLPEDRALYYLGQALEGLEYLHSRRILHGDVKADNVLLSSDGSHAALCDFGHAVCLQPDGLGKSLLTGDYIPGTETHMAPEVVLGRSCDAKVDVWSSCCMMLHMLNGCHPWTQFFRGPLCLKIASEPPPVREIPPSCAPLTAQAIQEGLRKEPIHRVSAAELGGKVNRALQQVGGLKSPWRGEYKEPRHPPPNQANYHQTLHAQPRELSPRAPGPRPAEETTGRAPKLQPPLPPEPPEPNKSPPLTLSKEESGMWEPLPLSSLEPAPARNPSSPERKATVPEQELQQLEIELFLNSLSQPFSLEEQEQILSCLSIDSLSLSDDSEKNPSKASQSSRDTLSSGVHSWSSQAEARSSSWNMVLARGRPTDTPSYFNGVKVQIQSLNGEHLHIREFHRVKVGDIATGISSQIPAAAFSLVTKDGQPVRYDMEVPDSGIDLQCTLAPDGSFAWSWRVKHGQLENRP
# Molecular target: Mitogen-activated protein kinase kinase kinase 14 (Homo sapiens, UniProt Q99558)
# Assay: Inhibition of NIK (unknown origin) after 1 to 2 hrs by ADP-FP assay
# Type: single protein
row,Structure (SMILES),Ki
1,C[C@@H]1Cn2cc(C(N)=O)nc2-c2cc(C#CC(C)(C)O)ccc2O1,1160 nM
2,CN1CC[C@@](O)(C#Cc2cc3c(cc2F)OCCn2cc(C(N)=O)nc2-3)C1=O,0.8 nM
3,C[C@H]1Cn2cc(C(N)=O)nc2-c2cc(C#CC(C)(C)O)ccc2O1,547 nM
4,CN1CC[C@](O)(C#Cc2cc3c(cc2F)OCCn2cc(C(N)=O)nc2-3)C1=O,405 nM
